Experimental data from PubChem BioAssay (NCI).
Some tests of the compounds listed are not included; inactive here does not mean inactive elsewhere.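 In this assay, cells in 96-well plates receive the compound at five concentrations for 48 hours. Endpoints are linearly interpolated between the surrounding concentrations. GI50 marks 50% less growth.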

Assays:
Experiment in all cases: NCI anticancer screen, dose series, 48 h; in the data active = GI50 below about 0.43 µM; inactive = the rest
UACC-257 melanoma = system: UACC-257 melanoma
MDA-MB-435 = system: MDA-MB-435
HOP-92 NSCLC = system: HOP-92 NSCLC
M14 melanoma = system: M14 melanoma
PC-3 prostate = system: PC-3 prostate
OVCAR-8 ovarian = system: OVCAR-8 ovarian
UACC-62 melanoma = system: UACC-62 melanoma
HCT-15 colon = system: HCT-15 colon
SNB-19 CNS = system: SNB-19 CNS
SF-539 CNS = system: SF-539 CNS
T-47D breast = system: T-47D breast
ACHN renal = system: ACHN renal
NCI/ADR-RES ovarian = system: NCI/ADR-RES ovarian
NCI-H522 lung = system: NCI-H522 lung
NCI-H322M lung = system: NCI-H322M lung
HT29 colon = system: HT29 colon
SF-268 CNS = system: SF-268 CNS
OVCAR-3 ovarian = system: OVCAR-3 ovarian
MCF7 breast = system: MCF7 breast
K-562 leukemia = system: K-562 leukemia
CAKI-1 renal = system: CAKI-1 renal
SK-OV-3 ovarian = system: SK-OV-3 ovarian
HCT-116 colon = system: HCT-116 colon
A498 renal = system: A498 renal
EKVX NSCLC = system: EKVX NSCLC
TK-10 renal = system: TK-10 renal
MDA-MB-231 breast = system: MDA-MB-231 breast
SW-620 colon = system: SW-620 colon
SK-MEL-28 melanoma = system: SK-MEL-28 melanoma
OVCAR-5 ovarian = system: OVCAR-5 ovarian
UO-31 renal = system: UO-31 renal
SN12C renal = system: SN12C renal
HS 578T breast = system: HS 578T breast
OVCAR-4 ovarian = system: OVCAR-4 ovarian
786-0 renal = system: 786-0 renal
SF-295 CNS = system: SF-295 CNS
KM12 colon = system: KM12 colon
SK-MEL-2 melanoma = system: SK-MEL-2 melanoma
U251 CNS = system: U251 CNS
A549 NSCLC = system: A549 NSCLC
NCI-H226 lung = system: NCI-H226 lung
BT-549 breast = system: BT-549 breast
COLO 205 colon = system: COLO 205 colon
NCI-H460 lung = system: NCI-H460 lung
MALME-3M melanoma = system: MALME-3M melanoma
HOP-62 NSCLC = system: HOP-62 NSCLC
RXF 393 renal = system: RXF 393 renal
SK-MEL-5 melanoma = system: SK-MEL-5 melanoma
NCI-H23 lung = system: NCI-H23 lung
RPMI-8226 leukemia = system: RPMI-8226 leukemia
SNB-75 CNS = system: SNB-75 CNS
IGROV1 ovarian = system: IGROV1 ovarian
DU-145 prostate = system: DU-145 prostate
MDA-N = system: MDA-N

Measured: GI50

C=C(C)C#CC(O)(C(=O)OC1CCN(C)CC1)c1ccccc1 (centres undefined)
inactive: UACC-257 melanoma > 100 µM | MDA-MB-435 = > 100 µM | HOP-92 NSCLC > 100 µM | M14 melanoma > 100 µM | PC-3 prostate > 100 µM | OVCAR-8 ovarian > 100 µM | UACC-62 melanoma > 100 µM | HCT-15 colon > 100 µM | SNB-19 CNS > 100 µM | SF-539 CNS > 100 µM | T-47D breast > 100 µM | ACHN renal > 100 µM | NCI/ADR-RES ovarian > 100 µM | NCI-H522 lung > 100 µM | NCI-H322M lung > 100 µM | HT29 colon > 100 µM | SF-268 CNS > 100 µM | OVCAR-3 ovarian > 100 µM | MCF7 breast > 100 µM | K-562 leukemia > 100 µM | CAKI-1 renal > 100 µM | SK-OV-3 ovarian > 100 µM | HCT-116 colon > 100 µM | A498 renal > 100 µM | EKVX NSCLC > 100 µM | TK-10 renal > 100 µM | MDA-MB-231 breast > 100 µM | SW-620 colon > 100 µM | SK-MEL-28 melanoma > 100 µM | OVCAR-5 ovarian > 100 µM | UO-31 renal 31.7 µM | SN12C renal > 100 µM | HS 578T breast > 100 µM | OVCAR-4 ovarian > 100 µM | 786-0 renal > 100 µM | SF-295 CNS > 100 µM | KM12 colon > 100 µM | SK-MEL-2 melanoma > 100 µM | U251 CNS > 100 µM | A549 NSCLC > 100 µM | NCI-H226 lung > 100 µM | BT-549 breast > 100 µM | COLO 205 colon > 100 µM | NCI-H460 lung > 100 µM | MALME-3M melanoma > 100 µM | HOP-62 NSCLC > 100 µM | RXF 393 renal > 100 µM | SK-MEL-5 melanoma > 100 µM | NCI-H23 lung > 100 µM | RPMI-8226 leukemia > 100 µM | SNB-75 CNS > 100 µM | IGROV1 ovarian > 100 µM | DU-145 prostate > 100 µM | MDA-N > 100 µM
